Sequences of proteins named here, by UniProt entry; tags and fusion partners are left off. A change or cut given only in a name is not applied to a line headed by its entry.
UniProt P08581: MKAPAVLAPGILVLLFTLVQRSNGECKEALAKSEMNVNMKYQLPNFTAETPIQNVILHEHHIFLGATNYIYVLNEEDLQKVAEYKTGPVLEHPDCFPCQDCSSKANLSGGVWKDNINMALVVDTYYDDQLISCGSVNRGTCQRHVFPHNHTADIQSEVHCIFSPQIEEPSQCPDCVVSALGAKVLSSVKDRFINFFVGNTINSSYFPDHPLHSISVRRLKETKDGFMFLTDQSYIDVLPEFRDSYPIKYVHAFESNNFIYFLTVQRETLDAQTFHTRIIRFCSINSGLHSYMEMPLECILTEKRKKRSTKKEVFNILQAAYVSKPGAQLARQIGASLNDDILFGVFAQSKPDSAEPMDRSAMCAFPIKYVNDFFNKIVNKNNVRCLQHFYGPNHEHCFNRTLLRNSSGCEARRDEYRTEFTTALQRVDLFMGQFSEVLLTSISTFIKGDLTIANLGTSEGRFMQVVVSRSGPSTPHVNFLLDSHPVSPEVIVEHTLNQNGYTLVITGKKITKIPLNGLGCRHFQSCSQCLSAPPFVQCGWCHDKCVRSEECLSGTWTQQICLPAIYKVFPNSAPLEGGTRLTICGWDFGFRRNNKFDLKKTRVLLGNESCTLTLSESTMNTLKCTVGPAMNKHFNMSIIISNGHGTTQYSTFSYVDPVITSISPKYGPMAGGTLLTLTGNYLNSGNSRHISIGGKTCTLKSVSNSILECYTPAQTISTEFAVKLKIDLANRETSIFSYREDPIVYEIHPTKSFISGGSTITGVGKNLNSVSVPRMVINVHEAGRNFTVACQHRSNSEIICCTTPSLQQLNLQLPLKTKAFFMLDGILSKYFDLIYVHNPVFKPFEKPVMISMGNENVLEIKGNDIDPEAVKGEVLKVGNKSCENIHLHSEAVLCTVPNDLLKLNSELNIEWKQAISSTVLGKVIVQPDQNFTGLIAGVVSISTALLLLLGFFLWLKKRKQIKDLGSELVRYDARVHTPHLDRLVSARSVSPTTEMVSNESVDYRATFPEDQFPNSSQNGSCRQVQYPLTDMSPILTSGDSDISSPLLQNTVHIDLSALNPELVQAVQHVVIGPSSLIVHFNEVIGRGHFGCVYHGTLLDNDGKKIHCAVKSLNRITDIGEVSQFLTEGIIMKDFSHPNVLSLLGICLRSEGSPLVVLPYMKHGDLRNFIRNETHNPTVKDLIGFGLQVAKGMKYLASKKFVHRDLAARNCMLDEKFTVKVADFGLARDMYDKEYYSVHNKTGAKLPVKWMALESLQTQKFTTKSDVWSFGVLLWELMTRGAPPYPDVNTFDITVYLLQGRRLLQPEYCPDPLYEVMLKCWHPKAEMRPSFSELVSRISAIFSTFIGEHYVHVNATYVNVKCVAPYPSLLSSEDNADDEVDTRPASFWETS

According to ChEMBL document CHEMBL4828765, “Design and Development of a Chemical Probe for Pseudokinase Ca2+/calmodulin-Dependent Ser/Thr Kinase” (J Med Chem, 2021):

Biological target: Hepatocyte growth factor receptor (Homo sapiens, UniProt P08581)
Test: Binding affinity to human MET by KINOMEscan scanMAX assay

Molecule `O=C(NCCCN1CCOC1=O)c1cnc(NCc2cc(Cl)ccc2Cl)nc1NC1CCCC1` has a Kd of 800 nM.
